For four compounds, Activity results are on record in ChEMBL document CHEMBL2406998, “Discovery of benzamide analogs as negative allosteric modulators of human neuronal nicotinic receptors: pharmacophore modeling and structure-activity relationship studies” (Bioorg Med Chem, 2013).

Amino acid sequences for entries named in this document (tags omitted). A change or cut given only in a name is not applied to a line headed by its entry.
UniProt P30926: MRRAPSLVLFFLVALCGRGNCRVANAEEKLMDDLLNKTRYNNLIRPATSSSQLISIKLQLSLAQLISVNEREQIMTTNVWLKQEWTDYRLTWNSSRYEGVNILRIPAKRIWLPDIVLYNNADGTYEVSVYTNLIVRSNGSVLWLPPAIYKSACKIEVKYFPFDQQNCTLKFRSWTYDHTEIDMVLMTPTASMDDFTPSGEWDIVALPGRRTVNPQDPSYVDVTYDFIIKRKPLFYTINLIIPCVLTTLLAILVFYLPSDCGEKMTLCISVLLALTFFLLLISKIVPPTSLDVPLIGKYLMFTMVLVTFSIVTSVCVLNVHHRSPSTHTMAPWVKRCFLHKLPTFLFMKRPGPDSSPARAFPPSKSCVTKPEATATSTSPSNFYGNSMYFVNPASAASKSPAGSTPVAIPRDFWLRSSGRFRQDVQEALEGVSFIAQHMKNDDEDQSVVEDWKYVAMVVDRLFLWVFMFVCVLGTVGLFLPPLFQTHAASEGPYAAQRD
UniProt P32297: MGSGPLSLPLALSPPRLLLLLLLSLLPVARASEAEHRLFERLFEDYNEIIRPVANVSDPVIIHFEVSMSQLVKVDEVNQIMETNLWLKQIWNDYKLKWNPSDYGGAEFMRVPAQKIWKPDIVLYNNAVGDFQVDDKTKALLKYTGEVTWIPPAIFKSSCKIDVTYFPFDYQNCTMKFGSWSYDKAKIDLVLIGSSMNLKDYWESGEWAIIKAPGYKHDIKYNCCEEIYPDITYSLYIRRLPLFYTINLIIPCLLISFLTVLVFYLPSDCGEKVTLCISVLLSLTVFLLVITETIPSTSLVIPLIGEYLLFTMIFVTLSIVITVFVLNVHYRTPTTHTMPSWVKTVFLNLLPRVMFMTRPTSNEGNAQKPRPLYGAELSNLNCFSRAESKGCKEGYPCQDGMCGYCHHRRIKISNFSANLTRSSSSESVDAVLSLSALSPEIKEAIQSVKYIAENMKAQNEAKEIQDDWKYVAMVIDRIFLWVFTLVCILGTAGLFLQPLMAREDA

The source made the active and inactive calls. No cut-off for these calls is given here.

This test deals with Neuronal acetylcholine receptor; alpha3/beta4 (Homo sapiens, UniProt P30926+P32297). Kind of test: Agonist activity at human alpha3beta4 nAChR. It counts as protein-complex assay. Put shortly: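 HEK tsA201 cells stably expressing the human receptor subtype, plated 24 h ahead at 37 °C, 5% CO2 in supplemented DMEM to a ~100% confluent monolayer. Washed with HEPES-buffered Krebs, loaded 1 h at room temperature with 50% Calcium 5 NW dye. Compounds as HCl salts from 0.01 M DMSO stocks, six concentrations 0.1–100 µM in HBK. Intracellular calcium fluorescence read every 1.5 s (ex 485/em 525 nm).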
`CCCOc1ccc(C(=O)Nc2cccc(Br)n2)cc1`: the result was inactive.

Consider `C=CCOc1ccc(C(=O)Nc2cccc(Cl)n2)cc1`, for which the result was inactive.

On to `CCCOc1ccc(C(=O)Nc2cccc(Cl)n2)cc1`, for which the outcome was inactive.

Consider `CCCOc1ccc(C(=O)Nc2cccc(C)n2)cc1`, for which the result was inactive.
